Biological target: T1, Tyrosine-protein kinase JAK3 (Homo sapiens, UniProt P52333)
T1 sequence (P52333 whole entry): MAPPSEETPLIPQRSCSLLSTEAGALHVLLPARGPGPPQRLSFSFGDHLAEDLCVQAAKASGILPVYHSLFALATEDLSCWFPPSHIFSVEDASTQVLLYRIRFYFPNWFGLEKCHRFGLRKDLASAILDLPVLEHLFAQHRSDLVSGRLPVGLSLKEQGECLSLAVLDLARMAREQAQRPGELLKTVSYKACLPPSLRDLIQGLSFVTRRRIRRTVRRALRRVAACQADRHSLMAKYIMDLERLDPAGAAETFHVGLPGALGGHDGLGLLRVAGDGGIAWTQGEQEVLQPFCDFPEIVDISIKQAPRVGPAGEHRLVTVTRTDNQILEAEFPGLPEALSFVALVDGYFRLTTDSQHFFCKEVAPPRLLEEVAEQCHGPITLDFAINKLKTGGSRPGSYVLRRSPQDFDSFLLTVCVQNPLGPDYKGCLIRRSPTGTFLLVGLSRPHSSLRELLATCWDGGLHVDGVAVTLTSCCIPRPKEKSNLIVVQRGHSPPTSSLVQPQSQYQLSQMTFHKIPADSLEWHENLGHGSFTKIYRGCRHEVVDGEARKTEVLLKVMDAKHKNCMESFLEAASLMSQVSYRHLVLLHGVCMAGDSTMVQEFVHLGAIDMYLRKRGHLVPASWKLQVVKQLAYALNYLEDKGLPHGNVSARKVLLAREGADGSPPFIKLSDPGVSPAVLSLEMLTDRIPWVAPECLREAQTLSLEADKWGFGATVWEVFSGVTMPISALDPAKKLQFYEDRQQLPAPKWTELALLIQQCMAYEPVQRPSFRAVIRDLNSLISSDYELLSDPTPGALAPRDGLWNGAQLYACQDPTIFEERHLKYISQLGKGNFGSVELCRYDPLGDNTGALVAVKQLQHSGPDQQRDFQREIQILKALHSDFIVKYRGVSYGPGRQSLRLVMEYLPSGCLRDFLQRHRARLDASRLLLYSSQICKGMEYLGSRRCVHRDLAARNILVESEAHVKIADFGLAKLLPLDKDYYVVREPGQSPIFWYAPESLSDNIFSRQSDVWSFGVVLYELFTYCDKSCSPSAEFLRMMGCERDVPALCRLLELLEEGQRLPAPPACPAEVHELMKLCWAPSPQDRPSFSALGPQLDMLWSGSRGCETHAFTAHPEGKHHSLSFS
Assay: JAK Caliper Enzyme Assay: Test article was solubilized in dimethyl sulfoxide (DMSO) to a stock concentration of 30 mM. An 11-point half log dilution series was created in DMSO with a top concentration of 600 μM. […] The compound plates were diluted 1 to 60 resulting in a top final assay compound concentration of 10 μM and a 2% DMSO concentration.Test article and assay controls were added to a 384-well plate. Reaction mixtures contained 20 mM HEPES, pH 7.4, 10 mM magnesium chloride, 0.01% bovine serum albumin (BSA), 0.0005% Tween 20, 1 mM ATP and 1 μM peptide substrate. […] The assays were initiated by the addition 1 nM JAK3 enzyme and were incubated at room temperature 75 minutes for JAK3. Enzyme concentrations and incubation times were optimized for each new enzyme preps and were modified slightly over time to ensure 20%-30% phosphorylation. The assays were stopped with a final concentration of 10 mM EDTA, 0.1% Coating Reagent and 100 mM HEPES, pH=7.4. The assay plates were placed on a Caliper Life Science Lab Chip 3000 (LC3000) instrument, and each well was sampled using appropriate separation conditions to measure the unphosphorylated and phosphorylated peptide.

IC50: > 10 µM
SMILES: C=CC(=O)N1CCC[C@@](C)(Nc2ncnc3[nH]ccc23)C1
